Assay results from patent US20250136722A1, “CYTOTOXICITY TARGETING CHIMERAS” (GLAXOSMITHKLINE INTELLECTUAL PROPERTY DEVELOPMENT LIMITED, priority 2021, published 2025).

Amino acid sequences for entries named in this document (tags omitted). A change or cut given only in a name is not applied to a line headed by its entry.
UniProt P41597, whole entry: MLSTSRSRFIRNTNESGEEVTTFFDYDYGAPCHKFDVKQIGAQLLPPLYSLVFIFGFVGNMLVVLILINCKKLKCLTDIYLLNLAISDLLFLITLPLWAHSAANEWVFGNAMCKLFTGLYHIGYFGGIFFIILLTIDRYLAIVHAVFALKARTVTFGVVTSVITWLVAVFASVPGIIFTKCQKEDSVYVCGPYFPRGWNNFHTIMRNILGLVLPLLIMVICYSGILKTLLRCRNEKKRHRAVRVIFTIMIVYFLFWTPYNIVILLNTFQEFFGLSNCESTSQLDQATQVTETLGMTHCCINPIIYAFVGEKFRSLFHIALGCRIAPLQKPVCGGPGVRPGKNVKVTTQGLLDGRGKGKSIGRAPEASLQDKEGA

What was measured:
[1] = target: CHOK1 cells engineered to overexpress human CCR2 (Homo sapiens, UniProt P41597); assay: Antibody dependent cellular cytotoxicity (ADCC) reporter assay (Example 199); settings: with anti-cotinine antibody SEQ ID NO: 11/12; CHOK1-human CCR2 target cells, Jurkat FcγRIIIa NFAT-luciferase reporter cells; 12-18 hours
Method: An antibody dependent cellular cytoxicity reporter assay was conducted using the following four assay components: (i) ARM compound of Formula (I) targeting CCR2 (concentrations ranging from 1 pM to 10 μM) (ii) anti-cotinine antibody having a heavy chain sequence of SEQ ID NO: 11 and a light chain sequence of SEQ ID NO: 12 (rabbit variable region with human IgG1 Fc domain containing a DE mutation (S239D/1332E)) (concentrations ranging from 0.01 μg/mL to 200 μg/mL); (iii) target cells: CHOK1 cells engineered to overexpress either human CCR2 (typically 1000-20,000 cells per well) and (iv) reporter cells: Jurkat cells engineered to express FcγRIIIa with the reporter gene luciferase under the control of the NFAT promoter (typically 3000-75,000 cells per well). Reagents were combined in a final volume of 20 μL in a 384-well tissue culture treated plate. […] Luminescence signal was measured on a microplate reader and signal:background was calculated by dividing the signal of a test well by the signal obtained when no heterobivalent compound of Formula (I) was added. […]
ARMs compounds of Formula (I) of the invention were tested for ADCC activity in the above assay in or more experimental runs and the results are shown in Table 3 below. […] The pEC50 value is the negative log of the EC50 value, wherein the EC50 value is the half maximal effective concentration measured in molar (M). […]

[2] = Blood drug concentration analysis (PK) in the in vivo depletion assay (Example 201); settings: hCCR2 knock-in mice, IV 0.1 mpk compound + 10 mpk anti-cotinine antibody
Method: Human CCR2 (hCCR2) knock-in mice (C57 background) were dosed intravenously with a PBS solution containing a compound of Formula (I) to measure depletion of CCR2 expressing cells in peripheral blood. Peripheral blood from IV dosed mice was also analyzed to determine PK properties of the ARM compounds of Formula (I).
Administration to Animal: Solution formulation of antibody and compound of Formula (I) was injected (bolus injection) to the restrained mouse in the right/left lateral tail vein. Animals were dosed with 0.1 milligram per kilogram (mpk) of the compound of Formula (I) and 10 mpk of the anti-cotinine antibody. […]
Terminal bleeding at end of experiment (48 hr): Approximately 250 μL of blood in K2EDTA tube and approximately 250 μL of blood in SST (serum separation tube) was collected from each mouse through retro-orbital bleeding under deep isoflurane anesthesia. […] The blood distribution at termination was determined as follows: • For PK: 50 μL of K2EDTA blood was transferred to another tube for PK • Flow cytometry: Remaining blood (˜200 μL) was used for flow cytometry analysis. • For serum collection: serum separator tubes (BD) were centrifuged at 4° C., 5000 rpm for 15 minutes. […]
Drug concentration in blood samples was determined by an LC-MS/MS-based bioanalytical method developed at Syngene. […]

[3] = system: endogenous target monocytes in human PBMC; assay: PBMC ex vivo monocyte depletion flow cytometry assay (Example 200); settings: with anti-cotinine antibody SEQ ID NO: 11/12, 18-24 hours
Method: A human PBMC (peripheral blood mononuclear cells) monocyte depletion flow cytometry assay was developed to screen compounds in a 384-well plate format. This assay incorporated endogenous natural killer cells to deplete endogenous target monocytes.
To screen compounds in the human PBMC monocyte depletion flow cytometry assay, 11-point dose-response curves were made from 1 mM stocks in neat DMSO by serially diluting an ARM compound of Formula (I) four-fold into a 384-well plate row-wise. These serially diluted compounds were then stamped into a flat bottom polypropylene 384-well plate (Greiner Bio-One) at 100 nL/well. […]
After 18-24 hours incubation, 2 μL of 6.25 μg human FC block (BD Pharmingen) that was diluted in assay medium was added to the wells of the plate. […] Samples from the plate were run on BD FACS Canto II flow cytometer and data was analyzed using FlowJo software.
ARMs compounds of Formula (I) of the invention were tested for the ability to deplete monocytes in the above assay in one or more experimental runs and the results are shown in Table 3 below. […] The pEC50 value is the negative log of the EC50 value, wherein the EC50 value is the half maximal effective concentration measured in molar (M). For compounds tested in more than one experimental run, the pEC50 value is reported as an average or as the individual values measured

[4] = target: Anti-cotinine antibody (SEQ ID NO: 11 / SEQ ID NO: 12, rabbit variable region with human IgG1 Fc domain) (synthetic construct, UniProt Z9HSV0PDV2+Z9L748VNP9); assay: Binding of anti-cotinine antibody to ARM compounds by SPR, Biacore T200, 37° C. (Example 202); settings: pH 7.4, rabbit variable region/human IgG1 Fc antibody captured on protein A
Method: Anti-cotinine antibodies having a heavy chain sequence of SEQ ID NO: 11 and a light chain sequence of SEQ ID NO: 12 (rabbit variable region with human IgG1 Fc domain containing a DE mutation (S239D/1332E)) were captured on one or more flow cells of a protein A sensor chip (Cytiva) using a Biacore T200 while reserving flow cell 1 as a reference. Following capture, a 3000 second wait step was included to reduce drift during compound analysis. ARM compounds of Formula (I) were then injected at 100 μL/min with 200 and 2000 second association and dissociation times. The entire experiment was run at 37° C. with running buffer containing 10 mM HEPES pH 7.4, 150 mM NaCl, 0.005% P20 and 1% DMSO. […] The experiment was run using Biacore T200 control software and evaluated using Biacore T200 Evaluation software. Curves were fit with a 1:1 kinetic binding model to obtain kon(1/Ms), koff(1/s), Kd (M) determined as koff/kon, and residence time determined as 1/koff. […]
Anti-cotinine antibody was tested for binding to ARMs compounds of Formula (I) of the invention in the above assay in or more experimental runs and the results are shown in Table 5 below. […] The pKd value is the negative log of the Kd value, wherein the Kd value is the dissociation constant measured in molar (M) as noted above. […]

CN1C(=O)C[C@H](C(=O)NCCOCCNC(=O)[C@H]2C[C@H](NC(=O)CCOCCC(=O)N[C@@H]3C[C@H](NC(C)(C)C)CC[C@@H]3N3CC[C@H](Nc4ncnc5ccc(C(F)(F)F)cc45)C3=O)C2)[C@H]1c1cccnc1
ADCC Reporter Assay pEC50 [1]: 9.3
Exposure of Compound of Formula (I) 48 hours post-dose [2]: 73.01 ng/mL
Ex Vivo Depletion Assay pEC50 [3]: 9.5
pKd of Antibody for ARM Compound of Formula (I) [4]: 8.975
